## Yeast mating assay B: variants of the scFv Ab-14

Source: Li et al. 2023 (doi:10.1038/s41467-023-39022-2), MIT Lincoln Laboratory and A-Alpha Bio; data file from the FLAb repository.

The target is the same throughout: PDVDLGDISGINAS, from the HR2 region of SARS-CoV-2 spike.

Parent: Ab-14, a human scFv built as VH, a 15-residue (Gly4Ser)3 linker, VL. Only the CDRs of the light chain vary.
VH: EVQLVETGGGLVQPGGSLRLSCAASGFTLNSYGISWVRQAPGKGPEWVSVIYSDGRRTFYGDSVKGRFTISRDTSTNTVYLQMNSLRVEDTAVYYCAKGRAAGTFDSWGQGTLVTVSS
VL: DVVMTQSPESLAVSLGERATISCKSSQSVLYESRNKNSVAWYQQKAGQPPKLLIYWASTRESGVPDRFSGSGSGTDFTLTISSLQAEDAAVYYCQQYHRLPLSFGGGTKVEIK

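The parent was found by panning a naive human phage display library on the peptide. This is the validation round: designs drawn from the data on random variants, tested in the same kind of assay. Group labels follow the data file (Ctrl: baseline library sampled from a position-specific scoring matrix, with some repeated check sequences; En: ensemble of fine-tuned language models; HC: hill climbing; a sequence that several methods proposed may carry one label only). Affinity was read by AlphaSeq, a pooled yeast mating assay with surface-displayed partners. The frequency of each diploid, read from paired DNA barcodes, reflects how well the two displayed proteins bind. Scores were corrected for input abundance and mapped to Kd with protein pairs of known affinity run in the same pool. There are six technical replicates.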

Each variant is given by its three light chain CDRs, as the data file delimits them; those of the parent are KSSQSVLYESRNKNSVA, WASTRES, QQYHRLPLS.
Affinities are written as log10 Kd with Kd in nM; a lower number is a better binder.
Averages over replicates are reported, and they cover detected replicates only.
"ND" means that the variant was in the library but no mating with the target was seen in that replicate; the authors take this as a sign of poor binding, and no number exists.
A sequence that the file lists under several names has all its replicates listed entry by entry, parted by semicolons.
Values of this round are not directly comparable with the first-round values of the same sequences.
Background: pairings of all light chain designs with three empty control strains gave a value in 4% of cases (median 2.64, 5th percentile 1.59). Values in that range, when seen in few replicates, are hard to tell from nonspecific mating. For each scFv, signals with the empty controls are counted beside the result.
Of ten entries with the parent sequence, four were seen in most replicates (averages 0.34 to 2.37), three in one and three in none, so single entries are noisy.
The authors averaged sequences with at least three values out of six and counted those with two or fewer as poor binders.

Variant DSSQGVLYESRNKNSVA | QASSRES | QQYHRLPLS [Ctrl] showed 1.80, 3.06, 1.82, 1.25, 1.23, 2.16 (mean 1.88; controls 1 of 18).
Variant KSSQSVLYEMRNKNSVA | WASTRES | QYYHRLPLS [Ctrl] showed ND, ND, ND, 1.91, 2.90, ND (mean 2.41; controls 0 of 18).
Variant KLWQSELYESRNKNSVA | WASTPES | QQYHRLPLS [Ctrl] showed ND, ND, ND, ND, ND, ND (controls 1 of 18).
Variant KSSQSVLFESRNKNSVA | DASTRES | QQYHRLPLS [Ctrl+En_HC] showed 0.27, 0.15, 0.22, 0.41, 0.21, 0.28; 0.22, 0.08, 0.07, 0.01, 0.25, 0.25 (mean 0.20; controls 4 of 36).
Variant KSSQSVSYESRNKNSVA | KASTRES | QQFHRLPLS [Ctrl] showed 0.81, 0.67, 1.12, 0.34, 0.76, 0.38 (mean 0.68; controls 0 of 18).
Variant KSSQSVLEEQRNKNSVA | RASTRES | QQYHVLPLS [Ctrl] showed ND, ND, 1.35, 1.29, 1.70, 1.76 (mean 1.53; controls 1 of 18).
Variant KLSQSVLYESRNKYSVA | WASTRES | QQYHRLVLS [Ctrl] showed ND, ND, ND, ND, ND, ND (controls 0 of 18).
Variant KSSQSVLYESRNRNSVA | WASMRES | QQYHRLPLS [Ctrl] showed ND, 1.57, 1.83, 1.05, 3.05, ND (mean 1.87; controls 0 of 18).
Variant KFSQSVLMESRDENSVA | HASTRES | QQYHRLPLS [Ctrl] showed 0.00, -0.16, -0.20, -0.24, -0.33, -0.05 (mean -0.16; controls 0 of 18).
Variant KSSQSVLYESRNKNSVA | WASTRQS | QQYHRLPLS [Ctrl] showed ND, ND, 1.69, 1.52, ND, ND (mean 1.60; controls 0 of 18).
Variant KSSQSVLYESRNKNSVA | SASTREL | QQYHRLPLS [Ctrl] showed 1.31, 1.04, 1.19, 1.36, 0.78, 1.31 (mean 1.17; controls 1 of 18).
Variant KSSQMVEYESRNLNSVA | WASTRES | QQYHRLPLS [Ctrl] showed 1.48, 2.01, 1.80, 1.66, 2.17, ND (mean 1.83; controls 0 of 18).
Variant KSSQSVLYESRNKNSVA | WASTRIS | VQYHRLPLS [Ctrl] showed ND, ND, ND, ND, ND, ND (controls 0 of 18).
Variant KSSQSQLYESRNKNSVA | FASTRES | QQYHRLPLS [Ctrl] showed ND, ND, 2.38, 1.50, 1.40, 1.70 (mean 1.75; controls 0 of 18).
Variant KSSQTWLYESRNKNSVA | WASTRES | QQYHRLPLS [Ctrl] showed ND, 1.22, 1.47, 1.11, 0.93, 2.63 (mean 1.47; controls 1 of 18).
Variant KSQQSVLYESRNKNSVA | WASTRES | QQMDRLPLS [Ctrl] showed ND, ND, ND, ND, ND, ND (controls 0 of 18).
Variant KSWQSVLYESRYKNSVA | QASTRES | QQYVRLPLS [Ctrl] showed 0.27, 0.20, 0.31, 0.41, 0.09, 0.18 (mean 0.24; controls 0 of 18).
Variant KSSQSVLYESRNKNSVA | WASTRES | QQKHRLPLS [Ctrl] showed ND, ND, ND, ND, ND, ND (controls 0 of 18).
Variant KCSQSVLYESRNKASVA | WASTRES | QQYHRLPLS [Ctrl] showed ND, ND, ND, ND, ND, ND (controls 0 of 18).
Variant KISQSVLYESDNKNSVA | WASTRES | QQYHRLPLS [Ctrl] showed 0.64, 0.93, 1.62, 0.64, 0.76, 0.63 (mean 0.87; controls 0 of 18).
Variant KSSQSVLYENRNKNSVA | WASTRES | QQYHRFPLS [Ctrl] showed 2.41, ND, ND, ND, ND, ND (controls 0 of 18).
Variant KIWQSLLYESRNKNSVA | KATTRES | QQYHRLPLS [Ctrl] showed 0.62, 0.61, 0.78, 0.55, 0.89, 0.48 (mean 0.66; controls 0 of 18).
Variant KSDQSVLYESQNKNSVA | WATTRES | QQYHRLPLS [Ctrl] showed 2.51, 3.27, 2.50, 2.42, 3.84, 3.51 (mean 3.01; controls 1 of 18).
Variant KSSPSVLYESRNKNSVA | WASTRES | QQYHRLPLS [Ctrl] showed 2.09, 1.76, 2.17, ND, ND, 2.14 (mean 2.04; controls 0 of 18).
Variant KSSQSVLIESRNKNSVA | WASTRNS | QQYHRLPLS [Ctrl] showed 1.14, 0.94, 1.38, 0.84, 0.73, 1.10 (mean 1.02; controls 1 of 18).
Variant KSSQSVLYESRNAYSVA | WASTRCS | QQYHALPLS [Ctrl] showed ND, ND, 1.21, 1.30, ND, ND (mean 1.26; controls 0 of 18).
Variant KLSQSVLYVSRNKNSVA | WASTRES | QQYHRLPLS [Ctrl] showed ND, ND, ND, ND, ND, ND (controls 0 of 18).
Variant KSPQSVLYESRNKNSVA | QASTRES | QQYHRLPLS [Ctrl] showed 0.55, 0.87, 0.65, 0.45, 0.56, 0.70 (mean 0.63; controls 0 of 18).
Variant KSRQSTLYESSNTNSVA | WASTREE | QQYHRLPLS [Ctrl] showed 1.53, 1.50, 0.89, 1.22, 1.57, 1.39 (mean 1.35; controls 1 of 18).
Variant KSSSSVLYESRNKNNVA | NASTRES | YQYSRLPLS [Ctrl] showed 1.23, 0.84, 0.68, 1.13, 1.05, 1.06 (mean 1.00; controls 1 of 18).
Variant KASTSVLYESINKNSVA | WASTRES | QQYHRLPLS [Ctrl] showed ND, ND, ND, ND, ND, 1.94 (controls 0 of 18).
Variant KSSLSVLYESRNKNSVA | GASTRES | QQYHRLPLS [Ctrl] showed 0.85, 0.59, 0.45, 0.54, 0.68, 0.66 (mean 0.63; controls 0 of 18).
Variant KSSQSVLYESTEKNSVA | WASTRVS | GQYHRLPLS [Ctrl] showed ND, 1.70, 2.54, 3.13, 0.92, ND (mean 2.07; controls 0 of 18).
Variant KTSKSVLYEWRNKNSVA | WASTRES | QQYHRLPLS [Ctrl] showed ND, ND, 1.54, 1.62, 1.96, 2.11 (mean 1.81; controls 1 of 18).
Variant KSSQSVLTESRNKNSVA | MESTRES | QQYHRLPLS [Ctrl] showed ND, 1.22, ND, 1.86, 1.73, 2.33 (mean 1.78; controls 0 of 18).
Variant KSVQSVLYPSLDKNSVA | NASTRES | QQYHRLPLS [Ctrl] showed 1.19, 0.94, 0.69, 0.95, 0.47, 1.09 (mean 0.89; controls 5 of 18).
Variant KSSQSVLYESRNKNSVA | WASTREK | QQYHRLPLS [Ctrl] showed 1.95, 2.04, 1.81, 1.90, 2.05, 1.58 (mean 1.89; controls 2 of 18).
Variant KSSQNVLYQSRNKNSVA | WASTRES | QQYHRLPLS [Ctrl] showed ND, 2.35, 3.35, ND, 3.17, ND (mean 2.96; controls 1 of 18).
Variant KDYQSRLYESRNKNSVA | WASTRES | QQYHRLPLS [Ctrl] showed ND, ND, ND, ND, ND, ND (controls 0 of 18).